For one compound, Km results are on record in publication PMC11976700, “Engineering of Conserved Sequence Motif 1 Residues in Halohydrin Dehalogenase HheC Simultaneously Enhances Activity, Stability, and Enantioselectivity” (ACS Catalysis, 2025).

What all share (experiment): epoxide ring opening, bromothymol blue pH assay, Hill fit
One assay deals with HheG (Ilumatobacter coccineus, UniProt A0A6C7EF96). The format is biochemical. Conditions: read-out: HheG / WT; 2 mM MOPS-SO4 pH 7.0, 22 °C; 100 mM cyclohexene oxide.
The target of assay [1] is HheC (Agrobacterium tumefaciens, UniProt Q93D82). Conditions: read-out: HheC / WT; 2 mM MOPS-SO4 pH 7.0, 30 °C; 100 mM epichlorohydrin.
Assay [2] concerns the target HheC (Agrobacterium tumefaciens, UniProt Q93D82, F12Y). Conditions: read-out: HheC / F12Y; 2 mM MOPS-SO4 pH 7.0, 30 °C; 100 mM epichlorohydrin.

On to `[N-]=[N+]=[N-]`, for which the Km on HheG came to 38.4 mM; on HheC [1], 17.3 mM; at HheC [2] it was 49.6 mM.
